Reference: ChEMBL document CHEMBL1148282, “A novel series of piperidin-4-yl-1,3-dihydroindol-2-ones as agonist and antagonist ligands at the nociceptin receptor” (2004)

Experiments:
[1] = biological target: Kappa-type opioid receptor (Homo sapiens, UniProt P41145); assay: Binding affinity against human Opioid receptor kappa 1 on CHO cell membranes by [3H]U-69593 displacement.
[2] = biological target: Delta-type opioid receptor (Homo sapiens, UniProt P41143); assay: Binding affinity against human opioid receptor delta 1 transfected on CHO cells was determined using [3H]Cl-DPDPE
Mu-type opioid receptor = Mu-type opioid receptor (Homo sapiens, UniProt P35372); assay: Binding affinity against human Opioid receptor mu 1 on CHO cell membranes was determined by [3H]DAMGO displacement.
Nociceptin receptor [3] = biological target: T1, Nociceptin receptor (Homo sapiens, UniProt P41146); assay: Concentration required for stimulation of [35S]GTP-gamma-S, binding to human Nociceptin receptor in cell membranes
Nociceptin receptor [4] = biological target: T1, Nociceptin receptor; assay: Binding affinity against human Nociceptin receptor on CHO cell membranes by [3H]N/OFQ displacement.

SMILES | Ki [1] [nM] | Ki [2] [nM] | Ki (Mu-type opioid receptor) [nM] | EC50 (Nociceptin receptor [3]) [nM] | Ki (Nociceptin receptor [4]) [nM]
O=C1Cc2ccccc2N1C1CCN(C[C@H]2CC3CCC2C3)CC1 (some centres not stated) | 372 | > 10000 | 115 | > 10000 | 22
CC(c1ccc(C2CCCCC2)cc1)N1CCC(N2C(=O)Cc3ccccc32)CC1 (configuration not stated) |  |  |  | > 10000 | 
O=C1Cc2ccccc2N1C1CCN(C[C@@H]2CC3CCC2C3)CC1 (some centres not stated) | 318 | > 10000 | 118 | > 10000 | 27.9
O=C1Cc2ccccc2N1C1CCN(C(C2CCCCC2)C2CCCCC2)CC1 |  |  |  |  | > 10000
